One series deals with human Nav1.7 (Homo sapiens (Human), UniProt Q15858). Nature of the series: Nav 1.7 in vitro PatchXpress (PX) assay. The class given is cell-based. The settings on record: read-out: NAV 1.7 PX IC50.
In another series the target is human Nav 1.5 (Homo sapiens (Human), UniProt Q14524). The experiment in a line: Nav 1.5 IonWorks Quattro (IWQ) in vitro assay. It counts as cell-based. To be noted: read-out: NAV 1.5 IWQ IC50. A general note: Patch clamp records ionic current or voltage across a cell membrane.

By UniProt entry, the sequences of proteins in these tests, tags left out.
UniProt Q15858, whole entry: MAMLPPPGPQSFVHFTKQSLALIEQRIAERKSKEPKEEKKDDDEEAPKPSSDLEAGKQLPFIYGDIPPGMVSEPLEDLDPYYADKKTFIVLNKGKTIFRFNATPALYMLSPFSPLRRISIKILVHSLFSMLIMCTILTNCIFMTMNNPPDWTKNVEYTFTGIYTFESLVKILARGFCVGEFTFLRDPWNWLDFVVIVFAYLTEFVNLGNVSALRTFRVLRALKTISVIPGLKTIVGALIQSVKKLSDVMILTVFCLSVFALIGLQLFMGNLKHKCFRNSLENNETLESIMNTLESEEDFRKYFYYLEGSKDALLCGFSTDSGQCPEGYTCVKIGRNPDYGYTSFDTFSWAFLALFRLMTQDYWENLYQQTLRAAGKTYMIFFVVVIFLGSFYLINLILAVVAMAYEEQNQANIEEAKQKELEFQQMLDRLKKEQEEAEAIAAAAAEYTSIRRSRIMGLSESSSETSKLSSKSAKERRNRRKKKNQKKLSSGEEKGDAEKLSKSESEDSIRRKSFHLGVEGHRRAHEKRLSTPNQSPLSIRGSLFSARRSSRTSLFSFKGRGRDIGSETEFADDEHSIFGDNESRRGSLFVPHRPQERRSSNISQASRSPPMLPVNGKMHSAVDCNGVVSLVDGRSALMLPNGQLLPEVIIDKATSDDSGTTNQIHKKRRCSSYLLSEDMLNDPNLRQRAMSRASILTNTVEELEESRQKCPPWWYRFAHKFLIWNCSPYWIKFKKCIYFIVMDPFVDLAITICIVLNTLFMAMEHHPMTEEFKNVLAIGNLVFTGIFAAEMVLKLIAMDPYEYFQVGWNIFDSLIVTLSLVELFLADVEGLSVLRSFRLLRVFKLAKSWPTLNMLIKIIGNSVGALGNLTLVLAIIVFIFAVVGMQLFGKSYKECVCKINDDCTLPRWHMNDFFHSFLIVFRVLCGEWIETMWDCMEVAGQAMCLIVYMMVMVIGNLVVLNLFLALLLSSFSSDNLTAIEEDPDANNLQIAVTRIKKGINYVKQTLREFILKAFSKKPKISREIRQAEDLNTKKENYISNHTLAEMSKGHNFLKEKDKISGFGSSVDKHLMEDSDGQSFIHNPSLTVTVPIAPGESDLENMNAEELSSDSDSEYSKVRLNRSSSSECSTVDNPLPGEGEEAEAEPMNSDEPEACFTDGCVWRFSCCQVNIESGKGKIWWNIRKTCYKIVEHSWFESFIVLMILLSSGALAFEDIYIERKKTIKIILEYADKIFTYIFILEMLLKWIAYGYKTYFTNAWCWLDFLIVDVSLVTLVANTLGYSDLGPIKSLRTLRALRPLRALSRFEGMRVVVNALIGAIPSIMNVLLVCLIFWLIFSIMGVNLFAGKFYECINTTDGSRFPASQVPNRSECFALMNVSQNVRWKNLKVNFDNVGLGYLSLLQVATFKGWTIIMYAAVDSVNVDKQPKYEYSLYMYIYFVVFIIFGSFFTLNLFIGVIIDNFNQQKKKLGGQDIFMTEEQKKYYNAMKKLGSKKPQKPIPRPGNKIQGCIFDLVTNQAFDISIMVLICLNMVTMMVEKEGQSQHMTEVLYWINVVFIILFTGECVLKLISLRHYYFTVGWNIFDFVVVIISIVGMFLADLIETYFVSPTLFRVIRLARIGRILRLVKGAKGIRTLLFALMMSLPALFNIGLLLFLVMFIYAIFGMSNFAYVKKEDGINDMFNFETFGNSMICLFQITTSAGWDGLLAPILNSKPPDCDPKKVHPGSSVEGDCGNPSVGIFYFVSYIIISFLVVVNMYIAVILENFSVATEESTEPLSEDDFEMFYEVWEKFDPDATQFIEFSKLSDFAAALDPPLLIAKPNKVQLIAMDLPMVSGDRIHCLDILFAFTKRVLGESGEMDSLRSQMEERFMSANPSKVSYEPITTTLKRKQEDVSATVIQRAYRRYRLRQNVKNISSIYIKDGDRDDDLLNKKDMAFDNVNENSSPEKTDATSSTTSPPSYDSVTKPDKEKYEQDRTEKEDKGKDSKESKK
UniProt Q14524, whole entry: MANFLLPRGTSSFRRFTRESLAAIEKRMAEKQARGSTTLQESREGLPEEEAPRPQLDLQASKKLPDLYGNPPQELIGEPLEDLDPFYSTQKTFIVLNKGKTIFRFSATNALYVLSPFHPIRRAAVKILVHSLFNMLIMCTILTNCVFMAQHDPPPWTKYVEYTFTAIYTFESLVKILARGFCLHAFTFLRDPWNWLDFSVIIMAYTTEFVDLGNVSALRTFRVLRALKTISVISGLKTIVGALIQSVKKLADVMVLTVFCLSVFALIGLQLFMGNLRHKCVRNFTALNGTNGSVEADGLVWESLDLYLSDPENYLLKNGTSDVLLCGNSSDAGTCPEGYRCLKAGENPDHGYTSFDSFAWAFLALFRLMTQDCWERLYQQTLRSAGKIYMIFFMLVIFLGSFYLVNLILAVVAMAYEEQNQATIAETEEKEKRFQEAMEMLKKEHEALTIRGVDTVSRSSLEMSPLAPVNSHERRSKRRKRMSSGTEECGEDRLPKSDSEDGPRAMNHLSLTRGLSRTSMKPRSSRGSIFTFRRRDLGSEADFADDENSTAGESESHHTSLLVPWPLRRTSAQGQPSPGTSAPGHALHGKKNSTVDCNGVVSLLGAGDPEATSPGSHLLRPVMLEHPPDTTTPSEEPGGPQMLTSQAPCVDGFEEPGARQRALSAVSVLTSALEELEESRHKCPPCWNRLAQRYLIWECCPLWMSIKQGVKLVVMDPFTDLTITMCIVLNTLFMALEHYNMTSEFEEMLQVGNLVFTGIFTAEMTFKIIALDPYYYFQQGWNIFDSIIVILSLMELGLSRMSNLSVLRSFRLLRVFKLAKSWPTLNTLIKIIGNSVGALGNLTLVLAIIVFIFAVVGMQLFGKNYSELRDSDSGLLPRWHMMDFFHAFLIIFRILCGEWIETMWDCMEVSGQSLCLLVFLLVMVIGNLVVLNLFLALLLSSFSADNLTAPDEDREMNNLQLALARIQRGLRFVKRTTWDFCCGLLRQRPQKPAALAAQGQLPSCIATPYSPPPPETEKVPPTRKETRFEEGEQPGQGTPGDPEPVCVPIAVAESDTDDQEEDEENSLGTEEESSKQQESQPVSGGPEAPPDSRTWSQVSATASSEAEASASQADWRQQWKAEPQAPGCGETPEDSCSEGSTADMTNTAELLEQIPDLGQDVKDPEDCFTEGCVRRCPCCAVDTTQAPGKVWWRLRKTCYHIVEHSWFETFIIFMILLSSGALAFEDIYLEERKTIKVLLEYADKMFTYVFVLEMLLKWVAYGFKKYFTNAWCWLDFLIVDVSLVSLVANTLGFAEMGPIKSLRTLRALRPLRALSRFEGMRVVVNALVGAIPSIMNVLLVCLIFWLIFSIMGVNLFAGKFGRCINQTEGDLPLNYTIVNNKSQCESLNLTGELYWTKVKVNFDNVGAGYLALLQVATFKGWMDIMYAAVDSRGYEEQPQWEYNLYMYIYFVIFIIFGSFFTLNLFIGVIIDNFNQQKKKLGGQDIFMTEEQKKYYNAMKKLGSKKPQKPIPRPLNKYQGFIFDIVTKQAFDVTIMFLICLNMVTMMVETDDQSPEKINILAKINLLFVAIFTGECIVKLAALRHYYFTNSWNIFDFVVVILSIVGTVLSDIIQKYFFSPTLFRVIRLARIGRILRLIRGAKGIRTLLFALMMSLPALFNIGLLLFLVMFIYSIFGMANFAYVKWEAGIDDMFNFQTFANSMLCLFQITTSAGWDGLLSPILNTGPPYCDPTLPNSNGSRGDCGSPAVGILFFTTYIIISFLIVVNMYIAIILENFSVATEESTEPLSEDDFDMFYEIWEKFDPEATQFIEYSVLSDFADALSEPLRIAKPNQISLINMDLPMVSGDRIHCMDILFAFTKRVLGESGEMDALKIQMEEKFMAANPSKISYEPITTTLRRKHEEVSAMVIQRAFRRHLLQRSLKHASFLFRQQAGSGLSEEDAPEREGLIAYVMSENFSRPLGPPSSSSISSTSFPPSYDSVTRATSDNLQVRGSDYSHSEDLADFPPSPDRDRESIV

`CCCCC(Oc1ncc(-c2cc(F)c(C(=O)NS(C)(=O)=O)cc2C)cc1Cl)c1ccccc1Cl` (centres unmarked): the IC50 (commonly the concentration that gives 50% inhibition) at human Nav1.7 came to 49.8 nM; at human Nav 1.5, 4410 nM.
